Data published in patent US10336675B2, “Biaromatic vitamin D analogs” (DSM IP ASSETS B.V., priority 2015, dated 2019).

Protein sequences, listed by entry. Tags and fused reporters are not part of them. Residues count along the entry.
UniProt P11473, 127-423 limits assumed: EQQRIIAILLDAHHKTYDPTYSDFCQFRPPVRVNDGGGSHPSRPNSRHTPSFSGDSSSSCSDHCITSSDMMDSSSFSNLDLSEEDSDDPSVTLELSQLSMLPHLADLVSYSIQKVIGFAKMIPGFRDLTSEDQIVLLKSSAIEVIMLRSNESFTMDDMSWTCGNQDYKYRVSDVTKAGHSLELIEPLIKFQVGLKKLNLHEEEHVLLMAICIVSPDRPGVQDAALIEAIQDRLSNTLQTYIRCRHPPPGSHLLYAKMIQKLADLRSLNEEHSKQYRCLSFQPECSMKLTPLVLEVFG

Molecular target: human vitamin D receptor (VDR) (Homo sapiens, UniProt P11473)
Assay: Human vitamin D receptor (VDR) agonist activity: GAL4-VDR LBD luciferase transactivation assay in transiently transfected HEK293 cells
Details: read-out: Effective concentrations of half maximal activation (EC50), VDR LBD-GAL4 DBD fusion, pFR-Luc luciferase reporter, 16 h incubation

EC50: 74 nM
Compound: CC/C(=C\C=C\C(O)(CC)CC)c1cccc(CCc2ccc(CO)c(CO)c2)c1
